Results published in US20220305015A1, “COMBINATORIAL THERAPY TARGETING PARP1 AND RTK” (Board of Regents, The University of Texas System, priority 2019, published 2022).

Amino acid sequences for entries named in this document (tags omitted). Residues count along the entry.
UniProt P22607, 23-806: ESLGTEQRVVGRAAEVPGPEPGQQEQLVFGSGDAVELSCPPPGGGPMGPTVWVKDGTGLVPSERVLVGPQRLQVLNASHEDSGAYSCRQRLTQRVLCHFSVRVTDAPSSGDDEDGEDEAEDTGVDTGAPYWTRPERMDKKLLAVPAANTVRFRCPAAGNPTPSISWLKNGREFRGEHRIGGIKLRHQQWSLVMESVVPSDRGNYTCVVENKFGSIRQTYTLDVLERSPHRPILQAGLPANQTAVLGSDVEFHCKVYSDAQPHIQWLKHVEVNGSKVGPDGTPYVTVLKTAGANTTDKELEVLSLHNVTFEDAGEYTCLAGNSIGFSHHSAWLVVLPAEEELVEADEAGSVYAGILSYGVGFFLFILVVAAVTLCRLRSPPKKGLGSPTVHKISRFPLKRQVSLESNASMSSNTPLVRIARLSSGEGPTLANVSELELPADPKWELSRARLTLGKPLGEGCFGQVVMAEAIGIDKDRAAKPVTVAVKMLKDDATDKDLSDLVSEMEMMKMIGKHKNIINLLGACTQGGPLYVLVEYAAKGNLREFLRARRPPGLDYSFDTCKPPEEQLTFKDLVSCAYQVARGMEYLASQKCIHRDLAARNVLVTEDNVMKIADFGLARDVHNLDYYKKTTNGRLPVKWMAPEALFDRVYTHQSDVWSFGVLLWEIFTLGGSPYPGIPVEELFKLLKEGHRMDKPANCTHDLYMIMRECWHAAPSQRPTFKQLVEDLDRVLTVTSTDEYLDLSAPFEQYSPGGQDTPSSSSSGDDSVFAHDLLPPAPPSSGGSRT

Target: T1, FGFR3 (Homo sapiens, UniProt P22607)
T1 construct: endogenous in cells; host or cells: SUM149 parental cells and SUM149-derived talazoparib-resistant BR cells (BR#09, BR#17)
Test: Western blot of FGFR phosphorylation in cells treated with MMS and talazoparib
Format: cell-based
Settings: BR# 09 and BR# 17 cells; 5 μM FGFRi

Substance: AZD4547
- FGFR phosphorylation in response to MMS and talazoparib: inhibited
